In PubChem BioAssay (Tox21):
Several values for one entry are separate records, joined by “and”; a condition that tells them apart may be missing. Identical values can stand only once. Only a part is listed here, and it is no random draw. Results filed as inconclusive are left out. Activity calls are given as the source filed them. Unless noted, calls come from the whole dose curve; as a rule, active = well fitted curve in the direction sought with a large enough effect in the repeat runs; inconclusive = weak or mixed curves; inactive = no such curve, though single readings can be large; an effect the other way counts as inactive or inconclusive.

Amino acid sequences for entries named in this document (tags omitted).
UniProt Q03181, whole entry: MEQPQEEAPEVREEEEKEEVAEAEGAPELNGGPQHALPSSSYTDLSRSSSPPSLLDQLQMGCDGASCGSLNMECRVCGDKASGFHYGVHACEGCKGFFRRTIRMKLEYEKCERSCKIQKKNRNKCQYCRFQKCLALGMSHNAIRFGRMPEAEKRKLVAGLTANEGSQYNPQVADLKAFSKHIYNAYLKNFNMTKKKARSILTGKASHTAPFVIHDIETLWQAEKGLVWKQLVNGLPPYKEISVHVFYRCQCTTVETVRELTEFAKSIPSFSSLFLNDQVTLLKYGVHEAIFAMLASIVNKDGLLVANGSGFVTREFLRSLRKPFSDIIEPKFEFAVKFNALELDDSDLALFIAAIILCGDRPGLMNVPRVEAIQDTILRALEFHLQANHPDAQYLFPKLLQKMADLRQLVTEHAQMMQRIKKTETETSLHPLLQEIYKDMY
UniProt Q96RI1, whole entry: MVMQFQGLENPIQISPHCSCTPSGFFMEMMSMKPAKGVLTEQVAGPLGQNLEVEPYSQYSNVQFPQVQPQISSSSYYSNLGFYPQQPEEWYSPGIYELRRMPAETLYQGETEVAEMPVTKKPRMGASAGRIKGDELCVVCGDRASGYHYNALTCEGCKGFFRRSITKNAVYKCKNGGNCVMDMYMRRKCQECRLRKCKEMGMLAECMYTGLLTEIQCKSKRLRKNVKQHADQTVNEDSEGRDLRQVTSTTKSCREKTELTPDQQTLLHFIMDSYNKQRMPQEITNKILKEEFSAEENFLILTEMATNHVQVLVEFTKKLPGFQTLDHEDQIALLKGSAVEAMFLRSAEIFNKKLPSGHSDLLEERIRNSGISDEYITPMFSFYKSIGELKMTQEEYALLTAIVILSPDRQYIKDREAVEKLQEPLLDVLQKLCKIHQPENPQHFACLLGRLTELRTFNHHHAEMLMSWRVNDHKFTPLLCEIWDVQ
UniProt P11473, whole entry: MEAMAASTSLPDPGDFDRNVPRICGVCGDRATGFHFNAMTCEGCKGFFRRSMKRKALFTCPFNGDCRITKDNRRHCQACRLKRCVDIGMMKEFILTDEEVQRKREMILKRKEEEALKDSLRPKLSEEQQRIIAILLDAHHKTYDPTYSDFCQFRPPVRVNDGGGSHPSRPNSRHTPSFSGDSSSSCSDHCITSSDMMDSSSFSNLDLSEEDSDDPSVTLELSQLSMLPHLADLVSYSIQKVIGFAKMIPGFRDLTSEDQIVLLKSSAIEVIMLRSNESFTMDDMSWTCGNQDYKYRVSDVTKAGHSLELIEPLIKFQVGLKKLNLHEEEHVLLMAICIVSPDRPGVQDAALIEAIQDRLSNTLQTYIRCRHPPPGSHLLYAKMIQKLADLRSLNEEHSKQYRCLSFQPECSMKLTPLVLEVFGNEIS
UniProt P19793, whole entry: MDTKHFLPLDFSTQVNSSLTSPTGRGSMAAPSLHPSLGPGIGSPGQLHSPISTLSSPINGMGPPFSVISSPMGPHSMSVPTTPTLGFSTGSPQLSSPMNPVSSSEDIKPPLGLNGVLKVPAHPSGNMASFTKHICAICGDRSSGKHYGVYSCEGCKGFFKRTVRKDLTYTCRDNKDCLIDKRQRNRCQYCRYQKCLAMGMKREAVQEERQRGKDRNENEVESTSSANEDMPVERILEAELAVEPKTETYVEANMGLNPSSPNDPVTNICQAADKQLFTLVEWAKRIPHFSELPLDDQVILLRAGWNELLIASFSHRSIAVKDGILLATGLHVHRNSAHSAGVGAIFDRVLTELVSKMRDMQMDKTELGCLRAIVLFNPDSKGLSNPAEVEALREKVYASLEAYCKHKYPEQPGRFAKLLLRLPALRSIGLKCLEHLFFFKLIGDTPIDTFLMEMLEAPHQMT

Legend:
[1] = qHTS assay to identify small molecule antagonists of the peroxisome proliferator-activated receptor delta (PPARd) signaling pathway - cell viability counter screen (AID 743213); settings: PPARd-bla HEK293H viability, CellTiter-Glo luminescence, 17 h; at 80.4 µM (top of the series) unless noted; note: % is set by controls: 0 for no effect and ±100 for the full control effect; nearly all actives have a fitted effect of over 50% in size
How it was run: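 PPARd-bla HEK293H cells were treated with compounds plus agonist L165041 (300 nM final) for 17 h at 37 C. Viability was then read in the same wells by CellTiter-Glo luminescence after 30 min at room temperature.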

[2] = target: Peroxisome proliferator-activated receptor delta (Homo sapiens) (UniProt Q03181); assay: qHTS assay to identify small molecule antagonists of the peroxisome proliferator-activated receptor delta (PPARd) signaling pathway (AID 743215; active = well fitted inhibition curve with a large enough effect in the signal ratio in the repeat runs, not every such curve was filed as active; the % refers to the signal ratio;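 note: cells stimulated with agonist L165041 at 300 nM final during compound exposure; % is set by controls: 0 for no effect and ±100 for the full control effect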); settings: HEK293H PPARd-UAS-bla, beta-lactamase FRET ratio, antagonist, 17 h; at 80.4 µM (top of the series)
How it was run: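 HEK293H UAS-bla, PPARd; agonist L165041 300 nM final with cpd in DMSO; 37 C 17 h; FRET substrate, RT 2 h; fluorescence intensity.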

[3] = target: Bile acid receptor (Homo sapiens) (UniProt Q96RI1); assay: qHTS assay to identify small molecule antagonists of the farnesoid-X-receptor (FXR) signaling pathway (AID 743217; active = well fitted inhibition curve with a large enough effect in the signal ratio in the repeat runs, not every such curve was filed as active; the % refers to the signal ratio; note: % is set by controls: 0 for no effect and ±100 for the full control effect); settings: HEK293T FXR-UAS-bla, beta-lactamase ratio, CDCA-stimulated, 16 h; at 81.1 µM (top of the series)
How it was run: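 GeneBLAzer FXR-UAS-bla HEK 293T, CDCA-stimulated (50 uM final). Compound treatment 16 h, 37 °C. Detection: beta-lactamase cleavage of B/G FRET substrate, fluorescence.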

[4] = qHTS assay to identify small molecule agonists of the farnesoid-X-receptor (FXR) signaling pathway - cell viability counter screen (AID 743218); settings: FXR-bla HEK293T viability, CellTiter-Glo luminescence, 16 h; at 81.1 µM (top of the series) unless noted; note: % is set by controls: 0 for no effect and ±100 for the full control effect; nearly all actives have a fitted effect of over 45% in size
How it was run: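 Parallel cytotoxicity test: compound-treated (16 h, 37 C) HEK 293T FXR-bla reporter cells were lysed with CellTiter-Glo and luminescence recorded.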

[5] = target: Bile acid receptor (Homo sapiens) (UniProt Q96RI1); assay: qHTS assay to identify small molecule agonists of the farnesoid-X-receptor (FXR) signaling pathway (AID 743220; active = well fitted activation curve with a large enough effect in the signal ratio in the repeat runs, not every such curve was filed as active; the % refers to the signal ratio; note: % is set by controls: 0 for no effect and ±100 for the full control effect); settings: HEK293T FXR-UAS-bla, beta-lactamase FRET ratio, 16 h; at 81.1 µM (top of the series)
[6] = qHTS assay to identify small molecule antagonists of the farnesoid-X-receptor (FXR) signaling pathway - cell viability counter screen (AID 743221; active = well fitted cell-killing curve with a large enough effect in the repeat runs, not every such curve was filed as active; note: % is set by controls: 0 for no effect and ±100 for the full control effect; nearly all actives have a fitted effect of over 50% in size); settings: FXR-bla HEK293T viability, CellTiter-Glo luminescence, 16 h; at 62.6 µM (top of the series) unless noted
How it was run: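 In GeneBLAzer FXR-UAS-bla HEK 293T cells stimulated with 50 uM chenodeoxycholic acid (final), compounds acted for 16 h at 37 C. Viability was assessed afterwards by CellTiter-Glo luminescence.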

[7] = target: Vitamin D3 receptor (Homo sapiens) (UniProt P11473); assay: qHTS assay to identify small molecule agonists of the vitamin D receptor (VDR) signaling pathway (AID 743222; calls by dose curve; note: % is set by controls: 0 for no effect and ±100 for the full control effect); settings: HEK293T VDR-UAS-bla, beta-lactamase FRET ratio, 16 h; at 81.1 µM (top of the series) unless noted
How it was run: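 In VDR-bla cells, compound-induced beta-lactamase expression is quantified by FRET substrate fluorescence. Treatment lasts 16 h at 37C; substrate develops 2 h at room temperature.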

[8] = target: Vitamin D3 receptor (Homo sapiens) (UniProt P11473); assay: qHTS assay to identify small molecule antagonists of the vitamin D receptor (VDR) signaling pathway (AID 743223; active = well fitted inhibition curve with a large enough effect in the signal ratio in the repeat runs, not every such curve was filed as active; the % refers to the signal ratio; note: % is set by controls: 0 for no effect and ±100 for the full control effect); settings: VDR-UAS-bla HEK293T, beta-lactamase FRET ratio, 16 h; at 61 µM (top of the series)
How it was run: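 Agonist 1alpha,25-dihydroxyvitamin D3 (3 nM in well) was added with each compound to VDR-bla cells preincubated 4 h. Cells stood 16 h at 37C, then FRET substrate 2 h at room temperature; fluorescence intensity recorded.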

[9] = qHTS assay to identify small molecule agonists of the vitamin D receptor (VDR) signaling pathway - cell viability counter screen (AID 743224); settings: VDR-bla HEK293T viability, CellTiter-Glo luminescence, 16 h; at 62.6 µM (top of the series) unless noted; note: % is set by controls: 0 for no effect and ±100 for the full control effect; nearly all actives have a fitted effect of over 50% in size
How it was run: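 Plated VDR-bla cells (4 h, 37C) received compound, incubated 16 h, then LiveBLAzer substrate 2 h RT; CellTiter-Glo added afterwards, luminescence read at 30 min.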

[10] = qHTS assay to identify small molecule antagonists of the vitamin D receptor (VDR) signaling pathway - cell viability counter screen (AID 743225); settings: VDR-bla HEK293T viability, CellTiter-Glo luminescence, 16 h; at 61 µM (top of the series); note: % is set by controls: 0 for no effect and ±100 for the full control effect; nearly all actives have a fitted effect of over 50% in size
How it was run: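 Luminescent cell viability (CellTiter-Glo) in VDR-bla HEK 293T cells after 16 h compound exposure at 37C in the presence of 3 nM final 1-alpha,25-dihydroxy vitamin D3.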

[11] = qHTS assay to identify small molecule agonists of the NFkB signaling pathway (AID 1159509; active = well fitted curve in the direction sought with a large enough effect in the signal ratio in the repeat runs, not every such curve was filed as active; the % refers to the signal ratio; note: % is set by controls: 0 for no effect and ±100 for the full control effect); settings: NFkB-bla ME-180 cells, beta-lactamase FRET ratio, 5 h; at 61 µM (top of the series)
How it was run: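 ME-180 NFkB-bla, 2,000 cells/well, overnight plating; cpd pinned in DMSO, 5 h 37 C; B/G FRET substrate 1.5 h RT; ex 405, em 460/530 nm.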

[12] = qHTS assay to identify small molecule agonists of the NFkB signaling pathway - cell viability counter screen (AID 1159515; calls by dose curve; note: % is set by controls: 0 for no effect and ±100 for the full control effect; nearly all actives have a fitted effect of over 55% in size); settings: NFkB-bla ME-180 viability, CellTiter-Glo luminescence, 5 h; at 61 µM (top of the series)
How it was run: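 Using the same wells as the NFkB reporter read, ME-180 NFkB-bla cells given compounds for 5 hr were assessed for viability via CellTiter-Glo, with luminescence taken after a 30 min room-temperature incubation.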

[13] = qHTS assay to identify small molecule agonists of the endoplasmic reticulum stress response signaling pathway (AID 1159516; active = well fitted activation curve with a large enough effect in the signal ratio in the repeat runs, not every such curve was filed as active; the % refers to the signal ratio; note: % is set by controls: 0 for no effect and ±100 for the full control effect); settings: ESRE-bla HeLa, ER stress beta-lactamase reporter, 5 h; at 61 µM (top of the series)
How it was run: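 An ESRE-bla HeLa cell assay: compounds were pin-transferred from DMSO onto overnight-plated cells and left 5 hr at 37 C. Substrate was then loaded for 2 hr at room temperature before reading fluorescence at 460 nm and 530 nm.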

[14] = qHTS assay to identify small molecule agonists of the endoplasmic reticulum stress response signaling pathway - cell viability counter screen (AID 1159517; calls by dose curve); settings: ESRE-bla HeLa viability, CellTiter-Glo luminescence, 5 h; at 61 µM (top of the series)
How it was run: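 HeLa cells carrying an ESRE-driven beta-lactamase reporter receive compound for 5 hr at 37 C. Cell viability is then gauged with CellTiter-Glo by luminescence, 30 min at room temperature.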

[15] = qHTS assay to identify small molecule antagonists of the retinoid-related orphan receptor gamma (ROR-gamma) signaling pathway - cell viability counter screen (AID 1159520); settings: Tet-on RORgamma CHO cells viability, ATP luminescence, 16 h; at 92.4 µM (top of the series)
How it was run: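 Cytotoxicity was read from cellular ATP (CellTiter-Glo luminescence) after 16 hr at 37 C with 1 uM doxycycline induction. The inducer was added 2 hr after compound transfer to Tet-on ROR gamma CHO cells.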

[16] = target: Nuclear receptor ROR-gamma (Homo sapiens) (UniProt P51449); assay: qHTS assay to identify small molecule antagonists of the retinoid-related orphan receptor gamma (ROR-gamma) signaling pathway (AID 1159521); settings: Tet-on RORgamma CHO cells, RORE-luciferase, 16 h; at 92.4 µM (top of the series)
[17] = qHTS assay to identify small molecule agonists of the AP-1 signaling pathway - cell viability counter screen (AID 1159525; calls by dose curve; note: nearly all actives have a fitted effect of over 55% in size); settings: ME-180 AP-1-bla cells viability, ATP luminescence, 5 h
How it was run: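 Luminescent ATP readout (Cell Titer Glo, 30 min RT), normalised to DMSO and tetra n-octyl ammonium bromide controls. Cells were ME-180 AP-1-bla in 0.5% dialyzed FBS Opti-MEM, with a 5 h, 37 °C compound exposure.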

[18] = qHTS assay to identify small molecule agonists of the AP-1 signaling pathway (AID 1159526; calls by dose curve; note: % is set by controls: 0 for no effect and ±100 for the full control effect); settings: ME-180 (cervical carcinoma) AP-1-bla reporter, beta-lactamase FRET ratio, 5 h; at 76.8 µM (top of the series)
[19] = target: Retinoic acid receptor RXR-alpha (Homo sapiens) (UniProt P19793); assay: qHTS assay to identify small molecule agonists of the RXR signaling pathway (AID 1159527; calls by dose curve; note: % is set by controls: 0 for no effect and ±100 for the full control effect; nearly all actives have a fitted effect of over 35% in size); settings: HEK293T RXRa-UAS-bla, beta-lactamase ratio, 16 h; at 76.8 µM (top of the series)
How it was run: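 Beta-lactamase reporter assay, agonist format. Engineered HEK 293T line, charcoal-stripped FBS at 2%, overnight (16 hr) exposure, fluorescence at 460 and 530 nm after 405 nm excitation.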

[20] = qHTS assay to identify small molecule agonists of the RXR signaling pathway - cell viability counter screen (AID 1159529); settings: RXR-alpha-bla HEK293T viability, CellTiter-Glo, 16 h; at 76.8 µM (top of the series)
How it was run: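 Same-well viability check after the LiveBLAzer FRET read: CellTiter-Glo added, luminescence measured after 30 min at room temperature. Reporter HEK 293T cells had been treated with compounds for 16 hr following a 5 hr preincubation.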

CCC(=O)N(c1ccccc1)C1(COC)CCN(CCn2nnn(CC)c2=O)CC1
inactive: viability change, negative = cytotoxic [1] -2.77% | ratio activity, negative = inhibition [2] 0.159% | activity change, negative = inhibition [3] -2.19% | viability change, negative = cytotoxic [4] -9.59% | activation [5] -4.82% | activity change, negative = cytotoxicity [6] -1.26% [at 81.1 µM] | activation [7] -6.99% | activity change, negative = inhibition [8] 6.28% | activity change, negative = cytotoxicity [9] -7.99% [at 81.1 µM] | viability change, negative = cytotoxic [10] -13.8% | activation [11] -0.754% | activity, negative = cytotoxic [12] -7.62% | activation [13] 0.711% | activity change, negative = cytotoxicity [14] -24.4% | activity, negative = cytotoxicity [15] -1.03% | activity change, negative = inhibition [16] 16.2% | viability change, negative = cytotoxic ([17]; at 76.8 µM (top of the series)) -1% | activation [18] -0.46% | activation [19] -0.402% | activity change, negative = cytotoxicity [20] 0.847%

CCC(=O)N(c1ccccc1)C1(COC)CCN(CCc2cccs2)CC1
inactive: viability change, negative = cytotoxic [1] -5.47% | ratio activity, negative = inhibition [2] 2.82% | activity change, negative = cytotoxicity [6] -7.83% [at 81.1 µM] | activity change, negative = cytotoxicity [9] -1.93% [at 81.1 µM] | viability change, negative = cytotoxic [10] -6.85% | activation [11] -0.175% | activity, negative = cytotoxic [12] -10.5% | activation [13] -4.29% | activity change, negative = cytotoxicity [14] -23.6% | activity, negative = cytotoxicity [15] -0.758% | activity change, negative = inhibition [16] -18.6% | viability change, negative = cytotoxic ([17]; at 76.8 µM (top of the series)) -4.23% | activation [18] 3.3% | activity change, negative = cytotoxicity [20] -14.4%

CN(CCCl)CCCl
inactive: activity change, negative = cytotoxicity [6] -11.6% and -9.25% | activity change, negative = cytotoxicity [9] -18.1% and 1.01% | activation [11] -1.53% and 0.763% | activity, negative = cytotoxic [12] 11.2% and -1.96% | viability change, negative = cytotoxic ([17]; at 35.3 µM (top of the series)) 0.454% | viability change, negative = cytotoxic ([17]; at 76.8 µM (top of the series)) -1.82%

O=[N+]([O-])C(Cl)(Cl)Cl
inactive: viability change, negative = cytotoxic [1] 8.8% [at 62 µM] | viability change, negative = cytotoxic [4] -0.846% [at 62.6 µM] | activity change, negative = cytotoxicity [6] -1.36% | activation [7] 6.41% [at 63.5 µM] | activity change, negative = inhibition [8] 1.56% | activity change, negative = cytotoxicity [9] 2.06% | viability change, negative = cytotoxic [10] -0.63% | activation [11] -0.794% | activity, negative = cytotoxic [12] -5.14% | activation [13] 3.91% | activity change, negative = cytotoxicity [14] -4.46% | activity, negative = cytotoxicity [15] -5.06% | viability change, negative = cytotoxic ([17]; at 76.8 µM (top of the series)) 1.49% | activation [18] -0.153% | activity change, negative = cytotoxicity [20] 8.86%
